Drawing on PubChem BioAssay AID602440 (Sanford-Burnham Center for Chemical Genomics, 2012), this text covers inhibition for 26 compounds.

Amino acid sequences for entries named in this document (tags omitted).
UniProt Q96LD8, whole entry: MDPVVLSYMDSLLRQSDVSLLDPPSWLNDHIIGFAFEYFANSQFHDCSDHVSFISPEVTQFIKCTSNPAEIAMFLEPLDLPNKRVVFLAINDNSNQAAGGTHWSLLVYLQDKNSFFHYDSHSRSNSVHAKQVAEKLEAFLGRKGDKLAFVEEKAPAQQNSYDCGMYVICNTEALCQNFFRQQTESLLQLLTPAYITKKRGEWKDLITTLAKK

The list shows a part of the results, in another mix than the full data. Some results for these compounds are left out of this collection, so the calls shown say nothing about other tests. The source made the active and inactive calls. Cut-off read from the data, not from the text of the source: active = inhibition mostly above about 40% (no sharp cut-off); inactive = mostly below about 27%.

In the assay the target is Sentrin-specific protease 8 (Homo sapiens) (UniProt Q96LD8). Kind of assay: human SENP8 protease inhibitors, primary screen, biochemical, fluorescence, Nedd8 protein substrate, uHTS (AID 602440). As to conditions: recombinant SENP8, Nedd8 substrate fluorescence; at 20 µM; active compounds read high.
For the compound `CC(C)N1C(=O)CC2(CCN(CCOC(=O)C(O)(c3ccccc3)c3ccccc3)CC2)C1=O`, the inhibition was inactive: 13.6%.

`COc1cc(SC)ccc1C(=O)NCC1(N(C)C)CCCCC1`: the inhibition was inactive: 29.8%.

With `CCN(CC)CC(C)C(C)OC(=O)C(O)(c1ccccc1)c1ccccc1` (stereo unspecified), the inhibition was inactive: 18.8%.

`Cc1ccc(C(=O)NCC2(N3CCCCC3)CCCCC2)cc1`: the inhibition was inactive: 13.2%.

In the case of `O=C(NCC1(N2CCCCC2)CCCCC1)c1cc([N+](=O)[O-])ccc1Cl`, the inhibition was inactive: 32.5%.

Regarding `CN1[C@@H]2CC[C@H]1CC(OC(=O)C(O)(c1ccccc1)c1ccccc1)C2` (stereo partly specified), the inhibition was inactive: 18.8%.

As to `O=C(NCC1(N2CCCCC2)CCCCC1)c1cc(F)c(F)cc1Cl`, the inhibition is inactive: 5.8%.

As to `C=CCN1CCN(CCOC(=O)C(O)(c2ccccc2)c2ccccc2)CC1`, the inhibition is inactive: 4.2%.

Turning to `O=C(NCC1(N2CCCCC2)CCCCC1)c1cccc(Br)c1`, the inhibition is inactive: 16.3%.

Turning to `CCN1CCCC(OC(=O)C2(O)c3ccccc3C=Cc3ccccc32)C1` (stereo unspecified), the inhibition is inactive: 16.7%.

On to `Cc1cc(C(=O)NCC2(N3CCCCC3)CCCCC2)ccc1[N+](=O)[O-]`, for which the inhibition is inactive: 17.4%.

`COc1ccc(C(=O)NCC2(N(C)C)CCCCC2)cc1`: the inhibition is inactive: 14.1%.

As to `CN(C)c1ccc(C(=O)NCC2(N(C)C)CCCCC2)cc1`, the inhibition was inactive: 13.4%.

As for `CN(C)C1CCCC1OC(=O)C(O)(c1ccccc1)c1ccccc1` (stereo unspecified), the inhibition is inactive: 8.7%.

For `Cc1ccccc1C(=O)NCC1(N2CCCCC2)CCCCC1`, the inhibition was inactive: 10.1%.

As to `COc1ccc(Cl)cc1C(=O)NCC1(N(C)C)CCCCC1`, the inhibition is inactive: 6.1%.

As to `COc1cccc(C(=O)NCC2(N3CCCCC3)CCCCC2)c1`, the inhibition is inactive: 13.8%.

Turning to `O=C(NCC1(N2CCCCC2)CCCCC1)c1cccc(Cl)c1`, the inhibition is inactive: 16.7%.

Turning to `CN(C)C1(CNC(=O)c2ccc(Br)cc2)CCCCC1`, the inhibition was inactive: 9.5%.

Take `COc1cc(C(=O)NCC2(N(C)C)CCCCC2)c([N+](=O)[O-])cc1OC`: the inhibition was inactive: 17.2%.

As to `COc1ccc(Br)c(C(=O)NCC2(N3CCCCC3)CCCCC2)c1`, the inhibition is inactive: 18.5%.

As to `C=C(C)C#CC(O)(C(=O)OC1CCN(C)CC1)c1ccccc1` (stereo unspecified), the inhibition was inactive: 13.5%.

Consider `CN(C)c1cccc(C(=O)NCC2(N(C)C)CCCCC2)c1`, for which the inhibition is inactive: -145%.

As for `O=C(OCCN1CCCC1)C(O)(c1ccccc1)c1ccccc1`, the inhibition is inactive: 19.9%.

Take `CC(C)Oc1ccc(C(=O)NCC2(N(C)C)CCCCC2)cc1`: the inhibition is inactive: 18.2%.

In the case of `O=C(OC1CN2CCC1CC2)C(CO)(c1ccccc1)c1ccccc1` (stereo unspecified), the inhibition is inactive: 23.1%.

In general, inhibition refers to the change of the read-out against control, counted positive when it falls.
